In ChEMBL document CHEMBL5257068, “Synthesis and biological evaluation of DIDS analogues as efficient inhibitors of RAD51 involved in homologous recombination” (Bioorg Med Chem Lett, 2023):

Target: T1, DNA repair protein RAD51 homolog 1 (Homo sapiens) (UniProt Q06609)
T1 sequence (whole entry): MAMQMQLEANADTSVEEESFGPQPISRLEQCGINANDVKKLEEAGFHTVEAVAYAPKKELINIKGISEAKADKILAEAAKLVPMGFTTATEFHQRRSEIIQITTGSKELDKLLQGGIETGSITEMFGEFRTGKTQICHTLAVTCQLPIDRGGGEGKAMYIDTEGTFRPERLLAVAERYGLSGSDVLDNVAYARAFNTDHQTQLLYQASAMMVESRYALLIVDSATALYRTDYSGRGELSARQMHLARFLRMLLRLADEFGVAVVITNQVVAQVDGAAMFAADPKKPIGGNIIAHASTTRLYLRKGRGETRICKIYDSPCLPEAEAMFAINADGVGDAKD
Experiment: Inhibition of His-6 tagged human RAD51 mediated strand exchange at 1 to 2 uM relative to control
Conditions: dose 1-2 µM

O=S(=O)(O)c1cc(N=C=S)ccc1/C=C/c1ccc(N=C=S)cc1S(=O)(=O)O
inhibition: 50%
